Measurements taken from patent US10801054B2 (priority 2013, dated 2020).
Where “and” joins values, the source holds several entries; their conditions need not be identical. Identical values can stand only once.

Tested on: Phage litmus

For CC(C)O [IPA, isopropyl alcohol], the “Color change of Phage litmus bands upon exposure” value was “immediately changed color”, the “Red-green-blue (RGB) color differences G3” value was 1.88 and 1.56 and 1.36 and the “Red-green-blue (RGB) color differences G4” value was 0.75 and 1.03 and 1.07. The “Red-green-blue (RGB) color differences R1” value was 1.16 and 1.23 and 1.28 and the “Time in which all color matrices of the Phage litmus responded” value was 30 s.
